The record followed here is patent US20090304692A1, “TRIAZINE COMPOUNDS AS PI3 KINASE AND MTOR INHIBITORS” (Wyeth, priority 2008, published 2009).

For this assay, the target named is Human mTOR (FLAG-TOR) (Homo sapiens, UniProt P42345). The assay is described as follows: mTOR kinase assay (DELFIA format, purified enzyme). The class given is biochemical. As to conditions: read-out: IC50 mTOR.

As usually defined, the IC50 is the midpoint of a concentration-inhibition curve. Take `COc1nc(-c2ccc(NC(=O)Nc3ccc(C(=O)N4CCNC(C)(C)C4)cc3)cc2)nc(N2CCOCC2)n1` [Example 247, 1-{4-[(3,3-dimethylpiperazin-1-yl)carbonyl]phenyl}-3-[4-(4-methoxy-6-morpholin-4-yl-1,3,5-triazin-2-yl)phenyl]urea]: the concentration for half-maximal inhibition (IC50) was found to be 19 nM.
